Patent US11242347B2, “2-phenyl-3,4-dihydropyrrolo[2,1-Ff] [1,2,4]triazinone derivatives as phosphodiesterase inhibitors and uses thereof” (TOPADUR PHARMA AG, priority 2015, dated 2022)

Biological target: human phosphodiesterase-5 (PDE5 enzyme isolated from human platelets) (Homo sapiens (Human), UniProt O76074)
Test: PDE5 assay: formation of 5′GMP from cGMP (SPA)
Settings: for % inhibition at 5.0E−09M: percent inhibition of the control enzyme activity

% inhibition at 5.0E−09M [%] | SMILES | IC50 [nM]
– | CCCc1c(/C=N/OC)c(C)c2c(=O)[nH]c(-c3cc(S(=O)(=O)N4CCN(CCO)CC4)ccc3OCC)nn12 [Compound 1y, 2-(2-ethoxy-5-((4-(2-hydroxyethyl)piperazin-1-yl)sulfonyl)phenyl)-5-methyl-4-oxo-7-propyl-3,4-dihydropyrrolo[2,1-f][1,2,4]triazine-6-carbaldehyde O-methyloxime] | 4.1
74.0 | CCCOc1ccc(S(=O)(=O)N2CCC(CCO)CC2)cc1-c1nn2c(CCC)c(/C=N/O)c(C)c2c(=O)[nH]1 [Compound 1r, (E)-2-(5-((4-(2-hydroxyethyl)piperidin-1-yl)sulfonyl)-2-propoxyphenyl)-5-methyl-4-oxo-7-propyl-3,4-dihydropyrrolo[2,1-f][1,2,4]triazine-6-carbaldehyde oxime] | –
87.0 | CCCc1c(/C=N/OCCO)c(C)c2c(=O)[nH]c(-c3cc(S(=O)(=O)N4CCN(CCO)CC4)ccc3OCC)nn12 [Compound 1z, (E)-2-(2-ethoxy-5-((4-(2-hydroxyethyl)piperazin-1-yl)sulfonyl)phenyl)-5-methyl-4-oxo-7-propyl-3,4-dihydropyrrolo[2,1-f][1,2,4]triazine-6-carbaldehyde O-(2-hydroxyethyl) oxime] | –
